ChEMBL document CHEMBL4831505, “Plant-Derived Cyclotides Modulate κ-Opioid Receptor Signaling” (J Nat Prod, 2021)

Sequences of proteins named here, by UniProt entry; tags and fusion partners are left off. A change or cut given only in a name is not applied to a line headed by its entry.
UniProt P33534: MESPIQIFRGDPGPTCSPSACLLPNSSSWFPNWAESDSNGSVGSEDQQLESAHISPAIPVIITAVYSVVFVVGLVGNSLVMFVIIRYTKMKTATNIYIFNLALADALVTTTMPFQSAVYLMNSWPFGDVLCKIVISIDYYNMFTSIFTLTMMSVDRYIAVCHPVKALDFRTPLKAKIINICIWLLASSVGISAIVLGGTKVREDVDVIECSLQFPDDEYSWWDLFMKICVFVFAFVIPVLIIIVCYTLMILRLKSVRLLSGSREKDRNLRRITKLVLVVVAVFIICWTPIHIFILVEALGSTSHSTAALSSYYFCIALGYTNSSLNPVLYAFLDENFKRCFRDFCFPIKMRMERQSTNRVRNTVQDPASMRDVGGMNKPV

What was measured:
[1] = molecular target: Kappa-type opioid receptor (Mus musculus) (UniProt P33534); experiment: Positive allosteric modulator activity in mouse kappa opioid receptor stably expressed in HEK293 cell membrane assessed as beta-arrestin recruitment by measuring U50,488 Emax using furimazine as a substrate pretreated for 5 mins followed by incubation with U50,488 measured for 35 mins by BRET assay …; settings: filed as positive allosteric modulator, time 40.0 min
[2] = molecular target: Kappa-type opioid receptor (Mus musculus) (UniProt P33534); experiment: Positive allosteric modulator activity in mouse kappa opioid receptor stably expressed in HEK293 cell membrane assessed as inhibition of forskolin induced cAMP production by measuring U50,488 Emax incubated with U50,488 alone measured after 30 mins by HTRF assay relative to control; settings: filed as positive allosteric modulator

`CN(C(=O)Cc1ccc(Cl)c(Cl)c1)C1CCCCC1N1CCCC1` (configuration not stated) showed an Emax [1] of 100% and an Emax [2] of 100%.
